Results published in US8394431B2, “Composition of extracts from plants and the use thereof in prophylaxis or treatment of metabolism disorder of blood lipid” (priority 2008, dated 2013).

Tested on: Hepatic Lipase (HL)
Assay: HL activity in L-O2 hepatocytes (colorimetric kit)
Format: cell-based, human
Conditions: 50.0 μg/ml, normal 5.16 ± 0.46
Description: The L-O2 human normal liver cells were cultured in routine way, various concentrations of FTZCE were respectively added after cells fusion, continuously cultured the cells for a certain time followed by collecting cells to prepare cell homogenates. Using LPL/HL detection kit (Nanjing Jiancheng Biotechnology Research Institute), the LPL/HL activity was detected by colorimetric method to research the effects of various composition of extracts from plants conbination on LPL activity and compare the enzyme activity of hepatocyte LPL/HL under the action of different concentrations of FTZEC. The gene expressions of hepatocyte LPL/HL were determined by RT-PCR method to observe the affects of FTZEC on the hepatocyte LPL/HL gene expression.

## CC(C)OC(=O)C(C)(C)Oc1ccc(C(=O)c2ccc(Cl)cc2)cc1 [Fenofibrate]
  HL activity: 7.75 ± 1.92 g FFA/mL supernatant · h
